Results as given in US6458837B1, “Lipophilic diesters of chelating agents” (D-Pharm Ltd., priority 1997, dated 2002).

Assay: Octanol-saline partition coefficient (lipophilicity)
Type: physicochemical
Conditions: octanol/physiological saline, 26° C.; for LogPc, octanol-saline partition coefficient, M = Ca++: calcium salt (BAPTA: dicalcium salt); for LogPc, octanol-saline partition coefficient, M = Na+: sodium salt (BAPTA: tetrasodium salt)
Procedure: The lipophilicity values of several BAPTA diesters salts of the invention were studied by comparing the solubility of these compounds in organic versus aqueous solutions. Octanol and physiological saline were used, respectively, as the organic and aqueous solutions. The partition coefficient (Pc), i.e the distribution ratio between the organic and the aqueous phases were determined for several specific BAPTA diesters salts of the general formula I: [drawing 6]

LogPc, octanol-saline partition coefficient, M = Ca++	LogPc, octanol-saline partition coefficient, M = Na+	Substance
−1.85	−2.27	BAPTA diester of methylethylene glycol [CH3OCH2CH2]
0.76	0.82	Heptyl diester of BAPTA [C7H15]
−1.00	−1.93	Methyltriethylene glycol diester of BAPTA [CH3(OCH2CH2)3]

Continued, substance first:

Substance	LogPc, octanol-saline partition coefficient, M = Ca++	LogPc, octanol-saline partition coefficient, M = Na+
BAPTA diester of heptyldiethylene glycol [C7H15(OCH2CH2)2]	0.95	1.30
BAPTA diester of heptylethylene glycol [C7H15OCH2CH2]	1.00	1.34
Butyl diester of BAPTA [C4H9]	0.32	−0.01
Propyl diester of BAPTA [C3H7]	−0.51	−0.63
